This passage reports growth inhibition results from PubChem BioAssay (NCI).

The assay is described as follows: NCI Yeast Anticancer Drug Screen. Data for the mgt1 strain (AID 153). The settings on record: S. cerevisiae mgt1 mutant growth inhibition, stronger effect = higher value. The protocol:
Growth inhibition of yeast strains with defined genetic alterations is measured as a screen for potential anti-cancer activity. Selected strains with alterations in DNA damage repair or cell cycle control were exposed to compounds and growth inhibition was measured relative to vehicle treated controls. The strain used in this assay is mgt1

SMILES strings stand for the structures. This is a selection; strong and weak results do not stand in their true shares. A structure can be active in one record and inactive in another. Active and inactive are the calls of the source. No stated cut-off is given here; in the data, active means growth inhibition above about 70%; inactive means the rest.

For the molecule `CC(C)c1nc(Nc2ccccc2)n(P(=O)(N(C)C)N(C)C)n1`, the growth inhibition (at 1.2 µM) was inactive: 9%; the growth inhibition (at 3.7 µM) is inactive: 20%; the growth inhibition (at 11.0 µM) was inactive: 14%; the growth inhibition (at 33.0 µM) was inactive: 41%; the growth inhibition (at 100.0 µM) is active: 94%.

For `O=[N+]([O-])c1cc([N+](=O)[O-])c2nsnc2c1`, the growth inhibition runs as follows: (at 1.2 µM) inactive: -4%; (at 3.7 µM) inactive: -1%; (at 11.0 µM) active: 100%; (at 33.0 µM) active: 99%; (at 100.0 µM) active: 99%.

As to `O=C1OC(C(Cl)(Cl)Cl)Sc2ccccc21` (stereo not given), the growth inhibition runs as follows: (at 1.2 µM) inactive: -2%; (at 3.7 µM) inactive: 1%; (at 11.0 µM) inactive: 3%; (at 33.0 µM) inactive: 27%; (at 100.0 µM) inactive: 13%.

Regarding `COc1cccc(C[N+](C)(CCCl)CCCl)c1[N+](=O)[O-]`, the growth inhibition reads like this: (at 1.2 µM) inactive: -19%; (at 3.7 µM) inactive: -23%; (at 11.0 µM) inactive: -23%; (at 33.0 µM) inactive: -23%; (at 100.0 µM) inactive: 1%.

Regarding `N#Cc1cc([N+](=O)[O-])cc([N+](=O)[O-])c1N`, the growth inhibition is, setting by setting: (at 1.2 µM) inactive: 8%; (at 3.7 µM) inactive: 16%; (at 11.0 µM) inactive: 26%; (at 33.0 µM) inactive: 55%; (at 100.0 µM) active: 80%.

Consider `NC(Cc1cnc[nH]1)C(=O)O` (stereo not given), for which the growth inhibition (at 1.2 µM) is inactive: 0%; the growth inhibition (at 3.7 µM) is inactive: 2%; the growth inhibition (at 11.0 µM) is active: 90%; the growth inhibition (at 33.0 µM) is active: 98%; the growth inhibition (at 100.0 µM) is active: 98%.

Regarding `FC1(F)SC2C(C1(F)F)C1(Cl)C(Cl)=C(Cl)C2(Cl)C1(Cl)Cl` (stereo not given), the growth inhibition was inactive: 16% (at 1.2 µM); active: 96% (at 3.7 µM); active: 99% (at 11.0 µM); active: 99% (at 33.0 µM); active: 98% (at 100.0 µM).
